Source: patent publication US20150258139A1, “METHODS FOR TREATMENT OF CANCER USING LIPOPLATIN” (REGULON, INC., priority 2012, published 2015)
Like-named read-outs stand apart in the source and are kept apart here.

How the values were obtained:
F98 glioma tumor = details: rat, in vivo
[1] = system: metastatic colorectal cancer; details: cited from earlier work; for severe neurotoxicity, % of patients: 130 mg/m2 once every 3 weeks

SMILES: O=C1[O][Pt]2([NH][C@@H]3CCCC[C@H]3[NH]2)[O]C1=O [Oxaliplatin]
- toxicity observed in animals (F98 glioma tumor): too toxic for the animals
- severe neurotoxicity, % of patients ([1]; after 6 treatment cycles): 10%
- severe neurotoxicity, % of patients ([1]; after 9 cycles): 50%
- toxicities ([1]; monotherapy, second line, Japanese study, notably neuropathy): Grade 3 toxicities
